Results published in ChEMBL document CHEMBL1149658, “Pyridinylimidazole inhibitors of Tie2 kinase” (Bioorg Med Chem Lett, 2007).

Key:
Homo sapiens [1] = species: Homo sapiens; assay: Selectivity of Tie2 over VEGFR2
Homo sapiens [2] = species: Homo sapiens; assay: Selectivity of Tie2 over VEGFR3
Homo sapiens [3] = species: Homo sapiens; assay: Selectivity of Tie2 over PDGFR1beta

Measured: Selectivity ratio

COc1ccc2cc(-c3nc(-c4ccc([S+](C)[O-])cc4)[nH]c3-c3ccncc3)ccc2c1 (stereo not drawn)
> 10: all assays above
